# According to ChEMBL document CHEMBL4219039, “Group-Based Optimization of Potent and Cell-Active Inhibitors of the von Hippel-Lindau (VHL) E3 Ubiquitin Ligase: Structure-Activity Relationships Leading to the Chemical Probe …” (J Med Chem, 2018):
# By UniProt entry, the sequences of proteins in these tests, tags left out.
# UniProt P40337, whole entry, looked up: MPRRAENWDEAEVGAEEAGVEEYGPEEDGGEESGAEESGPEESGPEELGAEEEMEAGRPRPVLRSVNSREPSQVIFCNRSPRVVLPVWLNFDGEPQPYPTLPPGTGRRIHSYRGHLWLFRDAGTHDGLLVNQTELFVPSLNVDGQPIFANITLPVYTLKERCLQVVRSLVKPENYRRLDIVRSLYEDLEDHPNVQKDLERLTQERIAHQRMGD
# Target: Von Hippel-Lindau disease tumor suppressor/Elongin B/Elongin C (Homo sapiens, UniProt P40337)
# Assay: Displacement of FAM-labeled HIF-1alpha peptide from VBC (unknown origin) by fluorescence polarization assay
row,SMILES,pKd
1,CC(=O)N(C)[C@H](C(=O)N1C[C@H](O)C[C@H]1C(=O)NCc1ccc(-c2scnc2C)cc1)C(C)(C)C,5.26
2,CC(=O)N[C@@H](C)C(=O)N1C[C@H](O)C[C@H]1C(=O)NCc1ccc(-c2scnc2C)cc1,6.12
3,CCC(=O)N[C@H](C(=O)N1C[C@H](O)C[C@H]1C(=O)NCc1ccc(-c2scnc2C)cc1)C(C)(C)C,6.46

# pKd: −log10 of the molar value.
